# The list shows a part of the results, in another mix than the full data. Active and inactive are the calls of the source.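 Rule for the calls: active = ranked among the strongest by inhibition in the single 10 µM screen, a fixed top-ranked set picked for dose follow-up; inactive = the rest, inconclusive results apart.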
# Test system: mevalonate kinase [Streptococcus pneumoniae D39]
# Experiment: S. pneumoniae MK inhibitors, primary screen, biochemical, PK/LDH-coupled NADH absorbance (AID 555)
# Details: purified MK, PK/LDH-coupled NADH absorbance 340 nm; at 10 µM; hits give high values
row,Structure (SMILES),inhibition
1,O=P(Nc1nccs1)(c1ccccc1)c1nc2ccccc2s1 (stereo unspecified),active: 92%

# Reference: PubChem BioAssay AID555 (SRMLSC, 2006)
